Reference: publication PMC9158284, “N-terminally truncated Aβ4-x proteoforms and their relevance for Alzheimer’s pathophysiology” (Translational Neurodegeneration, 2022)

How the values were obtained:
[1] = design: species or system C57BL/6 mice; settings: mouse, in vivo
Procedure: One hundred micrograms of either full-length or truncated Aβ species in both monomeric and oligomeric forms were radiolabeled using 1,3,4,6-tetrachloro-3α-6α-diphenylglycoluril pre-coated tubes (Iodogen, ThermoFisher Scientific/Pierce, Waltham, MA) and Na^125I (1 mCi, PerkinElmer, Waltham, MA), following the manufacturer’s specifications. All radiolabeling procedures were carried out for 20 min in a Standalone Radioiodine IH-350 hood (Atlantic Nuclear, Rockland, MA). Following removal of free Iodine using a desalting polyacrylamide column (D-salt, cut off 1.8 kDa, Pierce), radioactivity of labeled Aβ was assessed in a Perkin Elmer 1470 automated gamma counter (Perkin Elmer, Waltham, MA). Under these experimental conditions, [^125I] incorporation rendered specific activities in the range of 3–5 µCi/µg with > 98% TCA precipitable counts. […]
C57BL/6 mice (Taconic Biosciences, Hudson, NY) were intracerebrally injected with the different Aβ preparations following institutionally approved IACUC protocols, essentially as previously reported by our laboratory. […] Radioactivity remaining in the whole brain was assessed in the Perkin Elmer 1470 γ-counter.

[2] = Thioflavin T binding assay; type: physicochemical; settings: after 24-h incubation at 37 °C under physiological salt concentrations; 50 mM Tris–HCl pH 8.5; ex 435 / em 490 nm; three independent experiments
Procedure: Aggregation of the different Aβ homologues was also monitored by Thioflavin T binding, following previously described protocols. Briefly, 6 μl aliquots from each peptide aggregation time point were added to 184 μl of 50 mM Tris–HCl buffer, pH 8.5, and 10 µl of 0.1 mM thioflavin T (Sigma). Fluorescence was recorded for 300 s in an LS-50B spectrometer (Perkin Elmer, Waltham, MA) with a slit width of 10 nm and excitation and emission wavelengths of 435 and 490 nm, respectively.

[3] = Electron microscopy after negative staining; type: physicochemical; settings: 24-h incubation/oligomerization
Source text: Peptide oligomerization was also monitored by electron microscopy, as previously described. Five microliters of either monomeric or oligomeric preparations of the different Aβ peptides were placed onto carbon-coated 400 mesh Cu/Rh grids (Ted Pella, Inc., Redding, CA) and stained with 1% uranyl acetate in distilled water (Polysciences, Inc., Warrington, PA). The stained grids were examined in a Philips CM-12 transmission electron microscope and photographed with a Gatan (4 k × 2.7 k) digital camera at the Image Core Facility of the Skirball Institute of Biomedical Medicine, NYU School of Medicine, as described.

[4] = Autoradiography after SDS-polyacrylamide gel electrophoresis of [125I]-labeled Aβ preparations; type: physicochemical; settings: [125I]-labeled 24-h incubated preparations, 16.5% SDS–polyacrylamide gel
Procedure: One hundred micrograms of either full-length or truncated Aβ species in both monomeric and oligomeric forms were radiolabeled using 1,3,4,6-tetrachloro-3α-6α-diphenylglycoluril pre-coated tubes (Iodogen, ThermoFisher Scientific/Pierce, Waltham, MA) and Na^125I (1 mCi, PerkinElmer, Waltham, MA), following the manufacturer’s specifications. All radiolabeling procedures were carried out for 20 min in a Standalone Radioiodine IH-350 hood (Atlantic Nuclear, Rockland, MA). Following removal of free Iodine using a desalting polyacrylamide column (D-salt, cut off 1.8 kDa, Pierce), radioactivity of labeled Aβ was assessed in a Perkin Elmer 1470 automated gamma counter (Perkin Elmer, Waltham, MA). Under these experimental conditions, [^125I] incorporation rendered specific activities in the range of 3–5 µCi/µg with > 98% TCA precipitable counts. Aggregation status of the [^125I]-labeled Aβ monomeric and oligomeric species was analyzed by autoradiography following 16.5% SDS–polyacrylamide gel electrophoresis and subsequent direct exposure to HyBlot CL film (Denville Scientific Inc., South Plainfield, NJ), as we previously described. If not immediately used for the clearance experiments, [^125I]Aβ oligomeric peptides were stored at -80 °C and used within a week to prevent further oligomerization and minimize radiolysis.

[5] = after 24-h incubation at 37 °C, 50 μM in 10 mM phosphate buffer pH 7.4, 150 mM NaF; mean of 15 scans

For “Aβ4-42: Synthetic homologue of Aβ1-42 N-terminally truncated at Phe4”, the “Brain clearance, percentage cleared relative to the total injected radioactivity, oligomeric (24-h incubated) preparation” value [1] was 43% ± 3%, the “Thioflavin T binding (fluorescence) of oligomerized peptides” value [2] was “highest thioflavin T binding” and the “Protofibrillar assemblies after the aggregation procedure, length (electron microscopy)” value [3] was at most 150 nm. The “SDS-resistant oligomeric species of 24-h incubated preparations” value [4] was “from tetramers to dodecamers” and the “Secondary structure by CD upon oligomerization” value [5] was “dominant conformation”.
